{
  "sequences": {"note": "Sequences of proteins named here, by UniProt entry; tags and fusion partners are left off.", "UniProt P41145, whole entry": "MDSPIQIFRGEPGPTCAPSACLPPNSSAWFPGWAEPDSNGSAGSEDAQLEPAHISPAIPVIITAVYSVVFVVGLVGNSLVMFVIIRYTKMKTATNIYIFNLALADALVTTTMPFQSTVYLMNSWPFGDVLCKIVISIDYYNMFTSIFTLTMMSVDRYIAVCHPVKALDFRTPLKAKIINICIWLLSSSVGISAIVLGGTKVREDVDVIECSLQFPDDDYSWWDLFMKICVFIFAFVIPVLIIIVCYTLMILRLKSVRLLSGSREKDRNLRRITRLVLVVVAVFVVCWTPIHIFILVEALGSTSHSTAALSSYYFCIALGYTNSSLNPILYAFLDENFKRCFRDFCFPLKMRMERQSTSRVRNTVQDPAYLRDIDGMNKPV"},
  "source": "patent US20150258108A1",
  "about": "(priority 2014, published 2015)",
  "biological_target": "OPRK (Homo sapiens, UniProt P41145)",
  "experiment": "[35S]GTPγS binding assay, CHO-K1 membranes",
  "assay_type": "biochemical",
  "note": "Values joined by “and” are separate entries in the source; they are usually repeats but may differ in a detail not shown here. Equal entries are not always repeated. Where two headings read alike, the source gives them in different places.",
  "data": [
    {"smiles": "COCC[C@H]1C[C@H]2CN3CCc4c([nH]c5ccccc45)[C@](C(=O)OC)(C2)[C@H]13", "values": [
      {"measurement": "Ke", "result": "2.9 ± 0.7 µM and 4.3 ± 1.9 µM"},
      {"measurement": "e-coupling", "setting": "OPRK, activation, pKi-pEC50", "result": "0.94 ~"},
      {"measurement": "Ke", "setting": "OPRK, against U69,593", "result": "4.5 ± 1.4", "unit": "µM"},
      {"measurement": "Ke", "setting": "OPRK, against agonist Dynorphin A", "result": "2.8 ± 0.6", "unit": "µM"},
      {"measurement": "Ke", "setting": "OPRK, against agonist U69,593", "result": "4.5 ± 1.4", "unit": "µM"},
      {"measurement": "Ke", "setting": "OPRK, inhibitory component, agonist not named in the row", "result": 4.556, "unit": "µM"},
      {"measurement": "e-coupling", "setting": "OPRK, inhibitory component, pKi-pKe", "result": 0.39}
    ]}
  ]
}
